From patent US20060122189A1, “Phenylpiperazine derivatives with a combination of partial dopamine-D2 receptor agonism and serotonin reuptake inhibition” (priority 2004, published 2006)
Read-outs that look alike come from different tables or passages of the source.

By UniProt entry, the sequences of proteins in these tests, tags left out.
UniProt P14416, whole entry: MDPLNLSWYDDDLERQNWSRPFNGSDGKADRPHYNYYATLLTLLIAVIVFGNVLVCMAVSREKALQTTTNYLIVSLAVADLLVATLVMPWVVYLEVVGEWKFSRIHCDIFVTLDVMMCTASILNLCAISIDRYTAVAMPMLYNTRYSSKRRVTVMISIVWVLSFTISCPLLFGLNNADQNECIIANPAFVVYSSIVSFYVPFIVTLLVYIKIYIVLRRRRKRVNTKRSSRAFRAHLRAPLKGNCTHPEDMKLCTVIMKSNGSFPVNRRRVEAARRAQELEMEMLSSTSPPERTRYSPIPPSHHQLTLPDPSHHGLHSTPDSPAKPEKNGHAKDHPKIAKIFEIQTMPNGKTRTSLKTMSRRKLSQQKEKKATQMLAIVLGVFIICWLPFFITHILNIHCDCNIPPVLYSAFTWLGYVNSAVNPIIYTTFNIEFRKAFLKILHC
UniProt P31652, whole entry: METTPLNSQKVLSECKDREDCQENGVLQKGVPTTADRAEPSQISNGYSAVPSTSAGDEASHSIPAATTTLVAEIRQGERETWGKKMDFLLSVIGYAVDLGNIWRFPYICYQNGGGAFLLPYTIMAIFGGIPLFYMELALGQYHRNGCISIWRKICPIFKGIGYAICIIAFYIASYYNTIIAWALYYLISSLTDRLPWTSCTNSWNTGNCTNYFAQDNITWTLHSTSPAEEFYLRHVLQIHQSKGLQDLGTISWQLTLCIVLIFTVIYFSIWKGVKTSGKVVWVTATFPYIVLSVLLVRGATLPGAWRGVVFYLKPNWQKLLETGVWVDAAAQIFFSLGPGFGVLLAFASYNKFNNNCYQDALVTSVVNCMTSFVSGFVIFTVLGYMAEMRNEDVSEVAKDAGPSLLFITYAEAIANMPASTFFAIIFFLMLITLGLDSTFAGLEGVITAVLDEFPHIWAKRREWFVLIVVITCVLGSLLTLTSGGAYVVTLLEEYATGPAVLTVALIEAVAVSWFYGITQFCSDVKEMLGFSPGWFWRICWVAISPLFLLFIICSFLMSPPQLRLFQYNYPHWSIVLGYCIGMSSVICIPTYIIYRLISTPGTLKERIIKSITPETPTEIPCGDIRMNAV
UniProt P61169, whole entry: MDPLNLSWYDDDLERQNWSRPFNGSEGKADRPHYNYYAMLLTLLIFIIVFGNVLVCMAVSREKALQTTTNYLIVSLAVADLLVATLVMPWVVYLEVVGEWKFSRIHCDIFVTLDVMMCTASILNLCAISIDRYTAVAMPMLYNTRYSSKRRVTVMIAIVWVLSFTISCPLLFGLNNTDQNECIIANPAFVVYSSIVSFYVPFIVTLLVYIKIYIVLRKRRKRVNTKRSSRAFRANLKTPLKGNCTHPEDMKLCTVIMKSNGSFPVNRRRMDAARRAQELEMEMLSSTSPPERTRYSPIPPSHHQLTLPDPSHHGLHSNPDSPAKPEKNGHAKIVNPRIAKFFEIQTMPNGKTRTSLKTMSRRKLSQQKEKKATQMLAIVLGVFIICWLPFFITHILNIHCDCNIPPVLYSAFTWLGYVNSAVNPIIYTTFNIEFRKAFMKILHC

How the values were obtained:
[1] = target: Human dopamine D2,L receptors (Homo sapiens, UniProt P14416); assay: Inhibition of forskolin-induced [3H]-cAMP accumulation in CHO-K1 cells; type: cell-based; conditions: cloned human dopamine D2,L receptors, full agonist ε=1, full antagonist ε=0
Procedure: Inhibition of Forskolin-Induced [^3H]-cAMP Accumulation
The in vitro functional activity at dopamine-D2 receptors, including the intrinsic activity (E) of the compounds of the invention was measured by their ability to inhibit forskolin-induced [^3H]-cAMP accumulation.
Human dopamine D2,L receptors were cloned in fibroblast cell line CHO-K1′ cells and obtained from Dr. Grandy, Vollum Institute, Portland, Oreg., USA. CHO cells were grown in a Dulbecco's modified Eagle's medium (DMEM) culture medium, supplemented with 10% heat-inactivated fetal calf serum, 2 mM glutamine, 1 mM pyruvate, 5000 units/ml penicillin, 5000 μg/ml streptomycin and 200 μg/ml G-418 at 37° C. in 93% air/7% CO2. For incubation with test compounds, confluent cultures grown in 24 wells plates were used. Each condition or substance was routinely tested in quadruplicate. Cells were loaded with 1 μCi [^3H]-adenine in 0.5 ml medium/well. After 2 hours, cultures were washed with 0.5 ml PBS containing 1 mM of the phosphodiesterase inhibitor isobutylmethylxanthine (IBMX) and incubated for 20 min with 0.5 ml PBS containing 1 mM IBMX and forskolin with or without test compound. After aspiration the reaction was stopped with 1 ml trichloroacetic acid 5% (w/v). […] 0.8 ml Extract was passed over Dowex (50WX-4 200-400 mesh) and aluminumoxide columns, eluted with water and 0.1M imidazole (pH=7.5). Eluates were mixed with 7 ml Insta-gel and radioactivity was counted with a liquid scintillation counter. The conversion of [^3H]-ATP into [^3H]-cAMP was expressed as the ratio in percentage radioactivity in the cAMP fraction as compared to combined radioactivity in both cAMP and ATP fractions, and basal activity was subtracted to correct for spontaneous activity.
Test compounds were obtained as 10 mM stock solutions in 100% DMSO, and diluted in PBS/IBMX to final concentrations. Typically, compounds were used in concentrations that ranged from 10^−10M to 10^−5M. From quadruplicate data counts, the mean was taken as an estimate for drug-induced, receptor-mediated effects at specified second messenger accumulation, expressed as percentage of control values (forskolin-stimulated cAMP accumulation, subtracted by basal activity). By using the non-linear curve-fitting program INPLOT or the Excel-add-in XL-Fit, mean values were plotted against drug concentration (in molar) and a sigmoid curve (four-parameter logistic curve) was constructed. The maximal forskolin-induced stimulated conversion is taken as maximum value and the maximal inhibition (usually at drug concentrations 10^−4 M or 10^−5 M) as minimum and these values were fixed during the fitting process. Thus, concentrations of the compound, causing 50% of the maximally obtained inhibition of forskolin-induced cAMP accumulation (EC50), are averaged over several experiments and presented as mean pEC50±SEM. Antagonist potency is assessed by co-incubating cells with a fixed agonist concentration and specified antagonist concentrations. Curve fitting procedures are identical to those used for estimating EC50 values. Thus IC50 values, i.e. the concentration that is able to achieve 50% of maximal antagonism that can be achieved by this compound. IC50 values are corrected using a Cheng-Prussoff equation, correcting it for agonist concentration and EC50 values that is obtained in the same experiment. Thus, Kb=IC50/(1+[agonist]/EC50, agonist). The corresponding pA2 value is −log (Kb). Concentration-response curve fitting allows estimation of pEC50 values and of maximal achievable effect (intrinsic activity or efficacy (ε). A full receptor agonist has ε=1, a full receptor antagonist has ε=0, and a partial receptor agonist has an intermediate intrinsic activity.

serotonin reuptake sites = serotonin reuptake sites (Rattus norvegicus, UniProt P31652); assay: In vitro affinity for serotonin reuptake sites ([3H]-paroxetine binding)
Procedure: In Vitro Affinity for Serotonin Reuptake Sites
Affinity of the compounds for serotonin reuptake sites was determined using the receptor binding assay described by E. Habert et al.,: “Characterisation of [^3H]-paroxetine binding to rat cortical membranes”, Eur. J. Pharmacol., 118, 107-114, 1985.

dopamine-D2 receptors = dopamine-D2 receptors (Rattus norvegicus, UniProt P61169); assay: In vitro affinity for dopamine-D2 receptors ([3H]-spiroperidol receptor binding assay)
Procedure: In Vitro Affinity for Dopamine-D2 Receptors
Affinity of the compounds for dopamine-D2 receptors was determined using the receptor binding assay described by 1. Creese, R. Schneider and S. H. Snyder: “[^3H]-Spiroperidol labels dopamine receptors in rat pituitary and brain”, Eur. J. Pharmacol., 46, 377-381, 1977.

SMILES | Dopamine-D2 cAMP accum ε (intrinsic activity) [1] | 5-HT reuptake binding pKi (serotonin reuptake sites) | Dopamine-D2 binding pKi (dopamine-D2 receptors) | Dopamine-D2 cAMP accum ε (intrinsic activity) ([1]; tested form: HCl) | 5-HT reuptake binding pKi (serotonin reuptake sites; tested form: HCl) | Dopamine-D2 binding pKi (dopamine-D2 receptors; tested form: HCl)
O=c1[nH]c2cccc(N3CCN(CCOc4n[nH]c5ccc(F)cc45)CC3)c2o1 | 0.38 | 8.1 | 8.9 | – | – | –
C=C(COc1ccc2ccc(F)cc2c1)CN1CCN(c2cccc3c2oc(=O)n3C)CC1 | 0.29 | >9.0 | 8.1 | – | – | –
Cn1c(=O)oc2c(N3CCN(CCCOn4ccc5ccc(C#N)cc54)CC3)cccc21 | 0.95 | 8.1 | 7.7 | – | – | –
Cn1c(=O)oc2c(N3CCN(CCCCn4ccc5ccc(C#N)cc54)CC3)cccc21 | 0.81 | 9.0 | 7.4 | – | – | –
Cn1c(=O)oc2c(N3CCN(CCCCn4ccc5ccc(F)cc54)CC3)cccc21 | – | – | – | 0.75 | 9.0 | 6.9
Cn1c(=O)oc2c(N3CCN(CCCCn4ncc5ccc(F)cc54)CC3)cc(Cl)cc21 | 0.24 | 7.3 | 7.0 | – | – | –
O=c1[nH]c2cc(Cl)cc(N3CCN(CCCC4=CCc5ccc(F)cc54)CC3)c2o1 | 0.10 | 8.5 | 7.1 | – | – | –
